≈ marks a conversion by molar mass, not a printed value.
Test system: PGE2 synthesis in AGS cells
Test: PGE2 inhibition in non-stimulated AGS gastric mucosal cells
Format: cell-based, human
Conditions: 100 μM arachidonic acid

**Q.** `Cc1ccc(-c2cc(C(F)(F)F)nn2-c2ccc(S(N)(=O)=O)cc2)cc1` [Celexocib] was tested. Which “IC50 AGS” value did it give?
**A.** 0.055 µg/mL (≈ 0.144 µM)
